{"sequences": {"note": "By UniProt entry, the sequences of proteins in these tests, tags left out.", "UniProt P08253, whole entry": "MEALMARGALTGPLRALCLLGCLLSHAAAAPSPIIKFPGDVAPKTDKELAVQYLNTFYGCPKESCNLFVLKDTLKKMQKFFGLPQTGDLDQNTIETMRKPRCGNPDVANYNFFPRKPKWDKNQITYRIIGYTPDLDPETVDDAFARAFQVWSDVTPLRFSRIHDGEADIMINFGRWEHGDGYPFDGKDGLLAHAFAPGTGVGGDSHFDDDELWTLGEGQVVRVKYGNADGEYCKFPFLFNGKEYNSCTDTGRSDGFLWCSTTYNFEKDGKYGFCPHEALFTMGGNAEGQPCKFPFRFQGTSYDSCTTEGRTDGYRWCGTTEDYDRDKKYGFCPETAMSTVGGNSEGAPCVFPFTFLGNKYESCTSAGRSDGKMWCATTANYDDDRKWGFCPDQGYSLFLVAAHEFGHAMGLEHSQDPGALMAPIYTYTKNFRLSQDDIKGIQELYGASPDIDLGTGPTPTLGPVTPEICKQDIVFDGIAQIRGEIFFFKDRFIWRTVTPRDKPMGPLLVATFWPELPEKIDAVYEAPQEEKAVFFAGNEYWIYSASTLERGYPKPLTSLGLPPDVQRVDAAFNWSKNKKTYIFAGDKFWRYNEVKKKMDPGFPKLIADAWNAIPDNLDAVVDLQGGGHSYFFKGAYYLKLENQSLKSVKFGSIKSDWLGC"}, "source": "PubChem BioAssay AID602330", "about": "(Sanford-Burnham Center for Chemical Genomics, 2012)", "note": "The entries are a selection whose mix differs from that of the whole data set. The source made the active and inactive calls. No stated cut-off is given here; in the data, active means inhibition above about 40%; inactive means the rest."}
{"biological_target": "72 kDa type IV collagenase (Homo sapiens) (UniProt P08253)", "assay": "MMP-2 enzyme inhibition, confirmation, counter-screen for RPN11 inhibitor project, biochemical, fluorescence, single concentration (AID 602330);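 further: human MMP-2 activated beforehand with APMA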", "conditions": "recombinant MMP-2, FRET peptide cleavage fluorescence; at 20 µM; stronger effect = higher value"}
{"smiles": "CCCCCCCCCCCCCCCC1C[N+](C)(C)CCOP(C)(=O)O1", "note": "(stereo unspecified)", "inhibition": "inactive: -4.39%"}
